The numbers were not newly measured in US5593975A, “Adenosine derivatives having A2 agonist activity” (Schering Corporation, priority 1992, dated 1997), which cites them from elsewhere.

Among the test systems are A2 receptor; adenosine receptors; A1 receptor.
What all share (conditions): background, literature

Take `CCNC(=O)[C@H]1O[C@@H](n2cnc3c(N)ncnc32)[C@H](O)[C@@H]1O` [NECA, adenosine-5'-N-ethyluronamide]: the “activity on the A2 receptor” value in the data set with A2 receptor is on record as “having activity on the A2 receptor”. In the data set with adenosine receptors, the “selectivity for the adenosine receptors” value was “lacks selectivity for the adenosine receptors”. The “activity on the A1 receptor” value in the data set on A1 receptor is given as “also active on the A1 receptor”.
